Amino acid sequences for entries named in this document (tags omitted). Residues count along the entry.
UniProt O75874, 2-414 R132H limits assumed: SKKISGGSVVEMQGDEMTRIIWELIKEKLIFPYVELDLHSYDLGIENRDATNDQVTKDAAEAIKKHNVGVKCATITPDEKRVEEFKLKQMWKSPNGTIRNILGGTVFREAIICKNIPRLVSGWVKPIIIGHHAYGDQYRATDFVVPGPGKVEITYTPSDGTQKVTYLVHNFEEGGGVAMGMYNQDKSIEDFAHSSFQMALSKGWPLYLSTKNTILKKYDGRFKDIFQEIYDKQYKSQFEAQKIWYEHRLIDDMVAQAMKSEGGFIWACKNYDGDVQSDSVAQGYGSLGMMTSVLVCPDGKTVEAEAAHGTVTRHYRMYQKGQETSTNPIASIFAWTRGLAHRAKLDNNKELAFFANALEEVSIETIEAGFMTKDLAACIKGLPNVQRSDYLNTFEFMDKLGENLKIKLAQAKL

In ChEMBL document CHEMBL5725942, “Benzimidazol-2-amines as MIDH1 inhibitors” (2018):

Molecular target: Isocitrate dehydrogenase [NADP] cytoplasmic (Homo sapiens, UniProt O75874, R132H)
Assay: Mutant IDH1 R132H Biochemical Assay: mIDH1 catalyzes the NADPH-dependent reduction of alpha-ketoglutarate (α-KG) to (2R)-2-hydroxyglutarate (2-HG). NADPH consumption was measured by luminescent readout.The biochemical reactions were performed at 32° C. in 384-well plates using a reaction volume of 41 μl and the following assay buffer conditions: 50 mM Tris pH 7.5, 100 mM NaCl, 20 mM MgCl2, 0.05% BSA, 0.01% Brij, 1 μM NADPH, and 250 μM α-KG. The IDH1 R132H enzyme was used in a final concentration of 1.5 nM. Test compounds were used in a concentration range between 0.002 and 10 μM. The final DMSO concentration was 2.4%.The reaction was incubated for 30 minutes, then 40 μl of detection mix (0.75 μg/ml Luciferase, 0.02 U/ml Oxidoreductase, 4 μg/ml FMN, 2 μl/ml Decanal/Ethanol, 50 mM Tris pH 7.5, 0.5% Glycerin, 0.01% Tween-20, 0.05% BSA) was added. Luminescence was measured on a luminescent reader (10 seconds measuring time, 1 second integration period, 30% sensitivity). The decrease in luminescence is proportional to mIDH1 activity. IC50 values are determined by interpolation from plots of relative luminescence versus inhibitor concentration.

IC50	SMILES
10 µM	C[C@H]1C[C@@H](n2c(Nc3ccc(OC(F)(F)F)cc3)nc3ccc(C(=O)NCC(=O)O)cc32)CC(C)(C)C1
0.24 µM	CCN(CC)C(=O)c1ccc2nc(Nc3ccc(OC(F)(F)F)cc3)n([C@H]3C[C@@H](C)CC(C)(C)C3)c2c1 (racemic)
1.1 µM	C[C@@H]1C[C@H](n2c(Nc3ccc(OC(F)(F)F)cc3)nc3ccc(C(=O)N4CCCCC4)cc32)CC(C)(C)C1 (racemic)
10 µM	C[C@@H]1C[C@H](n2c(Nc3ccc(OC(F)(F)F)cc3)nc3ccc(C(=O)NC4CCS(=O)(=O)CC4)cc32)CC(C)(C)C1 (racemic)
